AlphaSeq binding of Ab-14 heavy chain variants to a spike HR2 peptide

Reference: Li et al. 2023, doi:10.1038/s41467-023-39022-2. File: FLAb, binding data.

All variants were tested on one target, the spike HR2 peptide PDVDLGDISGINAS (SARS-CoV-2).

Ab-14 is the parent antibody, in scFv form: VH, then the linker GGGGSGGGGSGGGGS, then VL. The light chain is unchanged in all variants.
VH: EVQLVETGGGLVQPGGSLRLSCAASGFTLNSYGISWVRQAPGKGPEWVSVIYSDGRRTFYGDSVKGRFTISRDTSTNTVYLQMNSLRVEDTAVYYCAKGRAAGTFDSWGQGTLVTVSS
VL: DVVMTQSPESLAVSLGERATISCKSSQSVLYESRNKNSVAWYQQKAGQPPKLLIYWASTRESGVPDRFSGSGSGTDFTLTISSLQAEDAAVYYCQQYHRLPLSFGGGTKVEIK

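The starting antibody came from a phage panning campaign against this peptide. Designed CDR sequences, proposed from the first random library and measured here. Their group label is 14H_GP_Gen (GP: Gaussian process model; Gen: genetic algorithm; a sequence that several methods proposed may carry one label only). The scFvs were displayed on barcoded MATa yeast, the peptide on MATalpha yeast. Binding brings cells together so that they mate, and sequencing counts the barcode pairs among the diploids. Scores were corrected for input abundance and mapped to Kd with protein pairs of known affinity run in the same pool. Each pool was mated in six replicate cultures.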

Each variant is given by its three heavy chain CDRs, as the data file delimits them; those of the parent are GFTLNSYGIS, VIYSDGRRTFYGDSVK, GRAAGTFDS.
Affinities are written as log10 Kd with Kd in nM; a lower number is a better binder.
Averages over replicates are reported, and they cover detected replicates only.
An entry "nd" has no value in the source: the pair was not observed among the diploids in that replicate. This suggests poor binding but is not conclusive.
As a blank, each scFv also met three strains without target: over all heavy chain designs, 1% of these pairings were detected, typically at 2.08 and seldom below 0.84. Also given: how often the same scFv was detected with the empty control strains, with their mean in brackets.
Of ten entries with the parent sequence, four were seen in most replicates (averages 0.34 to 2.37), three in one and three in none, so single entries are noisy.
In the paper, a design with two or fewer of six values counts as a poor binder.
Values of this round are not directly comparable with the first-round values of the same sequences.

{"CDR-H1": "KFDLNNYGIS", "CDR-H2": "VIYSDGRRTFYGDSVK", "CDR-H3": "GRTAGTFDS", "log10 Kd, replicates": "0.00 0.48 0.50 0.00 0.13 -0.02", "mean, log10 nM": "0.18", "control signals": "0/18"}
{"CDR-H1": "GFTLNEYGIS", "CDR-H2": "VIYSDGQRTFYGDSVK", "CDR-H3": "GRTAGTFDT", "log10 Kd, replicates": "-0.14 -0.29 -0.40 -0.42 -0.43 -0.07", "mean, log10 nM": "-0.29", "control signals": "0/18"}
{"CDR-H1": "GFELNEYGIS", "CDR-H2": "VIYSDGHRTFYGDSVK", "CDR-H3": "GRTAGTFDS", "log10 Kd, replicates": "-0.37 -0.57 -0.67 -0.87 -0.42 -0.26", "mean, log10 nM": "-0.53", "control signals": "0/18"}
{"CDR-H1": "GFELNEYGIS", "CDR-H2": "VIYSDGRRTFYGDSVK", "CDR-H3": "GREAGTFDK", "log10 Kd, replicates": "0.03 -0.15 -0.36 -0.46 0.10 0.17", "mean, log10 nM": "-0.11", "control signals": "0/18"}
{"CDR-H1": "GFTLESYGIS", "CDR-H2": "VIYADGRRTFYGDSVK", "CDR-H3": "GKAAGTFDT", "log10 Kd, replicates": "0.45 -0.01 -0.15 0.19 -0.56 0.02", "mean, log10 nM": "-0.01", "control signals": "0/18"}
{"CDR-H1": "GFDLNSYGIS", "CDR-H2": "VIYSDGKRTFYGDSVK", "CDR-H3": "GRLAGTFDS", "log10 Kd, replicates": "0.23 -0.25 -0.22 -0.31 -0.22 -0.10", "mean, log10 nM": "-0.15", "control signals": "0/18"}
{"CDR-H1": "GFDLNMYGIS", "CDR-H2": "VIYSDGRRTMYGDSVK", "CDR-H3": "GRTAGTFDS", "log10 Kd, replicates": "0.88 0.31 0.35 0.61 1.29 0.90", "mean, log10 nM": "0.72", "control signals": "2/18 (2.50)"}
{"CDR-H1": "GFDLNSYGIS", "CDR-H2": "VIYSDGRRTFYADSVK", "CDR-H3": "GRTAGTFDN", "log10 Kd, replicates": "0.51 -0.22 -0.03 -0.21 -0.06 0.02", "mean, log10 nM": "0.00", "control signals": "2/18 (2.49)"}
{"CDR-H1": "GFSLNSYGIS", "CDR-H2": "VIYSDGRRTFYGDNVK", "CDR-H3": "GWTAGTFDS", "log10 Kd, replicates": "0.08 0.43 0.92 0.44 -0.12 0.16", "mean, log10 nM": "0.32", "control signals": "0/18"}
{"CDR-H1": "GFDLNSYGIS", "CDR-H2": "VIYSDGRRTAYGDSVK", "CDR-H3": "GRMAGTFDS", "log10 Kd, replicates": "0.46 -0.11 -0.42 -0.20 -0.09 0.18", "mean, log10 nM": "-0.03", "control signals": "0/18"}
{"CDR-H1": "GFSLNSYGIS", "CDR-H2": "VIYSDGRRTAYKDSVK", "CDR-H3": "GRAAGTFDS", "log10 Kd, replicates": "0.41 -0.08 -0.57 0.04 0.42 0.38", "mean, log10 nM": "0.10", "control signals": "0/18"}
{"CDR-H1": "MFELNSYGIS", "CDR-H2": "VIYSDGRRTFYADSVK", "CDR-H3": "GRTAGTFDS", "log10 Kd, replicates": "0.72 1.02 0.65 0.86 0.78 1.08", "mean, log10 nM": "0.85", "control signals": "2/18 (2.99)"}
{"CDR-H1": "GFSLNEYGIS", "CDR-H2": "VIYSDGRRTFYDDSVK", "CDR-H3": "GKAAGTFDS", "log10 Kd, replicates": "0.00 -0.22 -0.14 -0.32 -0.32 -0.19", "mean, log10 nM": "-0.20", "control signals": "0/18"}
{"CDR-H1": "GFSLNEYGIS", "CDR-H2": "VIYSDGRRTFYQDSVK", "CDR-H3": "GKAAGTFDS", "log10 Kd, replicates": "nd nd nd nd 0.58 nd", "mean, log10 nM": "0.58", "control signals": "1/18 (0.34)"}
{"CDR-H1": "SFDLNSYGIS", "CDR-H2": "VIYSDGRRTFYGDSVK", "CDR-H3": "GWTAGTFDS", "log10 Kd, replicates": "2.18 nd nd 1.78 1.46 1.91", "mean, log10 nM": "1.83", "control signals": "0/18"}
{"CDR-H1": "GFELNSYGIS", "CDR-H2": "VIYSDGRRTFYGDSVK", "CDR-H3": "GEAAGTFDA", "log10 Kd, replicates": "0.79 0.92 0.61 0.31 0.51 1.06", "mean, log10 nM": "0.70", "control signals": "0/18"}
{"CDR-H1": "PFDLNSYGIS", "CDR-H2": "VIYSDGRRTFYADSVK", "CDR-H3": "GKAAGTFDS", "log10 Kd, replicates": "1.73 1.05 1.26 1.02 1.48 nd", "mean, log10 nM": "1.31", "control signals": "0/18"}
{"CDR-H1": "GFELNSYGIS", "CDR-H2": "VIYSDGRRTFYLDSVK", "CDR-H3": "GNAAGTFDS", "log10 Kd, replicates": "nd 3.11 2.02 nd 1.35 2.96", "mean, log10 nM": "2.36", "control signals": "0/18"}
{"CDR-H1": "GFELNSYGIS", "CDR-H2": "VIYSDGRRTFYIDSVK", "CDR-H3": "GRTAGTFDK", "log10 Kd, replicates": "nd 1.92 1.97 0.94 0.93 1.76", "mean, log10 nM": "1.50", "control signals": "0/18"}
{"CDR-H1": "GFDLNSYGIS", "CDR-H2": "VIYSDGRRTFYKDSVK", "CDR-H3": "GRTAGTFDT", "log10 Kd, replicates": "0.00 0.00 -0.15 -0.26 -0.16 0.04", "mean, log10 nM": "-0.09", "control signals": "0/18"}
{"CDR-H1": "GFDLNSYGIS", "CDR-H2": "VIYSDGRRTAYGDAVK", "CDR-H3": "GRAAGTFDS", "log10 Kd, replicates": "-0.72 -0.67 -0.83 -0.56 -1.04 -0.57", "mean, log10 nM": "-0.73", "control signals": "0/18"}
{"CDR-H1": "GFTLNEYGIS", "CDR-H2": "VIYSDGRRTFYGDSVK", "CDR-H3": "GKTAGTFDA", "log10 Kd, replicates": "0.47 -0.10 0.40 0.15 0.19 -0.13", "mean, log10 nM": "0.16", "control signals": "1/18 (3.75)"}
{"CDR-H1": "GFDLNSYGIS", "CDR-H2": "VIYSDGMRTFYGDSVK", "CDR-H3": "GREAGTFDS", "log10 Kd, replicates": "-0.28 -0.10 0.05 -0.64 -0.24 0.11", "mean, log10 nM": "-0.19", "control signals": "0/18"}
{"CDR-H1": "GFDLNSYGIS", "CDR-H2": "VIYSDGKRTFYGDMVK", "CDR-H3": "GRTAGTFDS", "log10 Kd, replicates": "0.54 -0.18 -0.15 -0.45 -0.19 0.01", "mean, log10 nM": "-0.07", "control signals": "0/18"}
{"CDR-H1": "GFELNSYGIS", "CDR-H2": "VIYSDGRRTFYGDSVK", "CDR-H3": "GKAAGTFDL", "log10 Kd, replicates": "nd nd nd nd nd nd", "mean, log10 nM": "nd", "control signals": "0/18"}
{"CDR-H1": "GFSLNEYGIS", "CDR-H2": "VIYSDGRRTFYGDQVK", "CDR-H3": "GKTAGTFDS", "log10 Kd, replicates": "0.11 -0.23 -0.21 -0.27 -0.30 -0.20", "mean, log10 nM": "-0.18", "control signals": "0/18"}
{"CDR-H1": "GFWLNEYGIS", "CDR-H2": "VIYSDGRRTFYGDSVK", "CDR-H3": "GRTAGTFDF", "log10 Kd, replicates": "nd 2.07 nd 1.72 1.16 2.55", "mean, log10 nM": "1.87", "control signals": "0/18"}